# Source: PubChem BioAssay AID602162 (NMMLSC, 2011)
# Chains of the proteins cited; added tags and fusions are not shown. Lines headed by an entry give the natural chain unless they say otherwise; changes in a name come on top.
# UniProt Q9NP58: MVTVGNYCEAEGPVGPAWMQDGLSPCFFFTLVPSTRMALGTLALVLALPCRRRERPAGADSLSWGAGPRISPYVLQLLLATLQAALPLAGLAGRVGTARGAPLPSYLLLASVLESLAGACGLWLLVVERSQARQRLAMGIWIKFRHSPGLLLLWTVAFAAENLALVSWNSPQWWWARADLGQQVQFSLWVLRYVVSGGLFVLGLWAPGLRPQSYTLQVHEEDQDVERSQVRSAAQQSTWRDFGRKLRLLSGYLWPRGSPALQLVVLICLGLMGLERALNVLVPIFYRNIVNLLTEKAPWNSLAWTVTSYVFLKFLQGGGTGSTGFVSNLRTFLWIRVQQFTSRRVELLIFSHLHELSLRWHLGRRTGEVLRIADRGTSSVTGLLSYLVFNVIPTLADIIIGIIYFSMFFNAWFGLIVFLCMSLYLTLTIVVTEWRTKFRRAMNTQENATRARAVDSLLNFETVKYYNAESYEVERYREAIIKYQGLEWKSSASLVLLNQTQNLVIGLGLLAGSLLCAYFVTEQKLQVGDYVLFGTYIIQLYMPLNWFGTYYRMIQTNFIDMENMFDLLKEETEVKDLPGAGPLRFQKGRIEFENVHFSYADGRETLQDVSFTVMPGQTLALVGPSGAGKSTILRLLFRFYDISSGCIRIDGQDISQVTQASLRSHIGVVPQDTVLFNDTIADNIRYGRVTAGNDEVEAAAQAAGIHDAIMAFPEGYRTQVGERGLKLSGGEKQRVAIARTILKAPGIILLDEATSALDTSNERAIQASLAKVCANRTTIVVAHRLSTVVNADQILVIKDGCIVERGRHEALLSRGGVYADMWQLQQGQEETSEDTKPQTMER
# Only a part is listed here, and it is no random draw. The source made the active and inactive calls.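 The calls were made as follows: active = fluorescence ratio to DMSO below 75%, the collection mean minus 3 SD; inconclusive = too few cells collected in the well; inactive = the rest.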
# Biological target: ATP-binding cassette sub-family B member 6 (Homo sapiens) (UniProt Q9NP58)
# Test: ABCB6 transporter inhibitors, primary screen, K562-ABCB6 cells, flow cytometry, MLPCN library (AID 602162);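 also: signal is porphyrin accumulated inside mitochondria; 100% equals median channel fluorescence of DMSO control wells; lower ratio means ABCB6 inhibition with less porphyrin fluorescence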
# Conditions: K562-ABCB6 porphyrin accumulation, 1 h, at 10 µM, stronger effect = lower value
row,Compound,fluorescence ratio to DMSO
1,CS(=O)(=O)c1cc([N+](=O)[O-])c2no[n+]([O-])c2c1,inactive: 96%
2,O=P(Nc1nccs1)(Oc1ccccc1)Oc1ccccc1,inactive: 102%
3,O=P(Nc1nccs1)(c1ccccc1)c1nc2ccccc2s1 (stereo unspecified),inactive: 99%
4,CCOP1(=S)c2c(C)nn(CCC#N)c2N=C(c2ccccc2F)N1C (stereo unspecified),inactive: 90%
5,O=C(O)COc1ccc([As](=O)(O)O)cc1[N+](=O)[O-],inactive: 100%
6,Nc1ccccc1[As](=O)(O)c1ccccc1,inactive: 98%
7,NC(=O)Nc1ccc([As](=O)(O)O)cc1,inactive: 99%
8,CN(C(=O)Cc1ccc(Cl)c(Cl)c1)[C@H]1CC[C@@]2(CCCO2)C[C@@H]1N1CCCC1,inactive: 97%
9,O=[N+]([O-])c1ccc2c(c1)nnn2O,inactive: 100%
10,CN(C)C(=O)c1cc([N+](=O)[O-])cc2c1-c1c(cc([N+](=O)[O-])cc1[N+](=O)[O-])C2=O,inactive: 98%
11,CN(C(=O)Cc1ccccc1)[C@@H]1CC[C@]2(CCCO2)C[C@H]1N1CCCC1,inactive: 104%
12,CCOP1(=S)c2c(C)nn(CCC#N)c2N=C(c2ccc(F)cc2)N1C (stereo unspecified),inactive: 101%
13,N#CCCN(C(=O)COC(=O)C(O)(c1ccccc1)c1ccccc1)c1ccc(F)cc1,inactive: 95%
14,CS(=O)(=O)c1ccc(Cl)c(NC(=O)COC(=O)C(O)(c2ccccc2)c2ccccc2)c1,inactive: 100%
15,O=[As](O)(O)c1cccnc1,inactive: 93%
16,COc1cc(C(=O)NCC2(N3CCOCC3)CCCCC2)cc(Cl)c1OC(C)C,inactive: 96%
17,O=C(OC1CN2CCC1CC2)c1ccc(Cl)cc1 (stereo unspecified),inactive: 99%
18,Cc1cccc(OCC(=O)OC2CN3CCC2CC3)c1 (stereo unspecified),inactive: 101%
19,O=[As](O)(c1cccc(O)c1)c1cccc(O)c1,inactive: 97%
20,CCCOP(=S)(Nc1nc(N)cc(=O)[nH]1)OCCC,inactive: 100%
21,Nc1cccc2c([As](=O)(O)O)cccc12,inactive: 96%
22,Cc1ccc(NCCc2c([N+](=O)[O-])cc([N+](=O)[O-])cc2[N+](=O)[O-])cc1,inactive: 101%

row,Compound,fluorescence ratio to DMSO
1,CCOP(=O)(Nc1cccc2ccccc12)OCC,inactive: 94%
2,COc1cc(C2NCCC3(OCCO3)C2(C)C)cc(OC)c1OC (stereo unspecified),inactive: 96%
3,CCOP(=O)(Nc1ccc(C)cn1)OCC,inactive: 99%
4,CN(CCCl)Cc1cc(Cl)c(NC2=NCCN2)c(Cl)c1,inactive: 90%
5,CCOP(=O)(NC(=NC(C)c1ccccc1)NC(C)c1ccccc1)OCC (stereo unspecified),inactive: 99%
6,CCC1=CC2Cc3nc4ccc(Cl)cc4c(N)c3C(C1)C2 (stereo unspecified),inactive: 110%
7,O=P1(Nc2ccccn2)COc2ccccc2OC1,inactive: 94%
8,CC(C)(C)C(=O)NC(Sc1ncccn1)C(Cl)(Cl)Cl (stereo unspecified),inactive: 101%
9,Clc1n[nH]nc1-c1nn[nH][15n]1,inactive: 98%
10,O=P1(N(CCCl)CCCl)NCCC(C(F)(F)F)O1 (stereo unspecified),inactive: 101%
11,COc1ccccc1CNC(=O)COC(=O)C(O)(c1ccccc1)c1ccccc1,inactive: 98%
12,CC1(CBr)Cn2c(nc3ccccc3c2=O)S1 (stereo unspecified),inactive: 95%
13,CN(C(=O)Cc1ccc(Cl)c(Cl)c1)[C@@H]1CCCC[C@H]1N1CCCC1,inactive: 100%
14,CC(C)/C=N\N=C(\N)N[N+](=O)[O-],inactive: 101%
15,Cc1ccc(C(=O)OC2CN3CCC2CC3)cc1 (stereo unspecified),inactive: 94%
16,CC1CCC(C(C)C)C(OP(=O)(Nc2ccccn2)c2ccccc2)C1 (stereo unspecified),inactive: 105%
17,Cc1nn(-c2ccccc2)c2c1P(=O)(N1CCOCC1)N(C)C(c1ccccc1)=N2 (stereo unspecified),inactive: 92%
18,CCCC1OP(=O)(Nc2ccccc2)OCC1CC (stereo unspecified),inactive: 91%
19,O=C(/C=C/c1ccccc1)OC1CN2CCC1CC2 (stereo unspecified),inactive: 92%
20,CN(C)C1(CNC(=O)c2ccc(S(C)(=O)=O)cc2)CCCCC1,inactive: 100%
21,O=P1(Nc2ncccn2)COc2ccccc2OC1,inactive: 106%
22,Cc1ccc(S(=O)(=O)N(CCCN)CCCc2c(C)nc(N)[nH]c2=O)cc1,inactive: 95%

row,Compound,fluorescence ratio to DMSO
1,O=[As](O)(c1cccs1)c1cccs1,inactive: 96%
2,Cc1ccc(OCC(=O)OC2CN3CCC2CC3)cc1 (stereo unspecified),inactive: 93%
3,NS(=O)(=O)c1cccc(NC(=O)COC(=O)C(O)(c2ccccc2)c2ccccc2)c1,inactive: 95%
4,O=P1(Nc2ccc(Br)cn2)COc2ccccc2OC1,inactive: 90%
5,Nc1cccc([As](=O)(O)c2ccccc2)c1,inactive: 97%
6,CC1CCNP(=O)(N(CCCl)CCCl)O1 (stereo unspecified),inactive: 92%
7,O=C(O)C(O)c1ccc(N(CCCl)CCCl)cc1 (stereo unspecified),inactive: 99%
8,CCOC(=O)Nc1ccc([As](=O)(O)O)c(O)c1,inactive: 99%
9,Cc1cc(SC(NC(=O)c2ccccc2)C(Cl)(Cl)Cl)nc(C(C)C)n1 (stereo unspecified),inactive: 100%
10,CCCCOc1ccc(C(=O)NCC2(N3CCCCC3)CCCCC2)cc1OC,inactive: 104%
11,COP(=O)(OC)N1CC1c1ccccc1 (stereo unspecified),inactive: 101%
12,CCOC(=O)Nc1cccc([As](=O)(O)O)c1,inactive: 106%
13,O=[N+]([O-])c1ccc(Nc2ccc(Oc3ccc([N+](=O)[O-])cc3[N+](=O)[O-])cc2)c([N+](=O)[O-])c1,inactive: 96%
14,Cc1cc(SC(NC=O)C(Cl)(Cl)Cl)ncn1 (stereo unspecified),inactive: 99%
15,O=P(Nc1ccccn1)(c1cccc2ccccc12)c1cccc2ccccc12,inactive: 95%
16,COC(=O)C1(C)COP(=O)(N2CCCC2)OC1 (stereo unspecified),inactive: 101%
17,COP1(=S)c2c(C)nn(CCC#N)c2N=C(c2ccc(F)cc2)N1C (stereo unspecified),inactive: 99%
18,O=C(Nc1ccncc1[N+](=O)[O-])c1ccc([N+](=O)[O-])cc1[N+](=O)[O-],inactive: 101%
19,O=C(COc1ccccc1)OC1CN2CCC1CC2 (stereo unspecified),inactive: 101%
20,O=C(O)C(=O)c1ccc(N(CCCl)CCCl)cc1,inactive: 101%
21,CCOC(=O)c1ccc(NC(=O)C(C)(CCl)SC)cc1 (stereo unspecified),inactive: 99%
22,CSc1ccc(Nc2c([N+](=O)[O-])cc([N+](=O)[O-])cc2[N+](=O)[O-])cc1,inactive: 91%
